# Patent US4968539A, “Liquid crystal membrane” (Lion Corporation, priority 1987, dated 1990)
# How the values were obtained:
# [1] = Cumulative amount of isosorbide dinitrate permeated through membrane with intermittent heating, vertical-type diffusion cell; settings: heating and cooling at intervals of 2 h; TPS-303 membrane
# [2] = Cumulative amount of isosorbide dinitrate permeated through membrane and hairless rat skin with intermittent heating; settings: heating to 38° C and cooling at intervals of 6 h; TPS-303 membrane
# [3] = Isosorbide dinitrate concentration in rabbit blood, drug reservoir with heat generation sheet
smiles,measurement,setting,value
O=[N+]([O-])O[C@H]1CO[C@H]2[C@@H]1OC[C@H]2O[N+](=O)[O-],"Drug delivery pattern (cumulative amount of the permeated drug, FIG. 3)",[1],the drug delivery pattern can be regulated suitably by controlling the temperature of the heat generation system
same,"Permeation pattern of the drug through the skin (cumulative amount, FIG. 4)",[2],the permeation pattern of the drug through the skin can be regulated suitably by controlling the temperature of the heat generation system
same,Concentration in blood,[3]; 10 hr (after heating 0 to 10 h),280 ng/mL
same,Concentration in blood,[3]; 20 hr (after leaving to cool),135 ng/mL
same,Concentration in blood,[3]; 30 hr (after heating 20 to 30 h),302 ng/mL
same,Concentration in blood,[3]; 40 hr (after leaving to cool),158 ng/mL
